One-dose inflammasome screen (PubChem AID 2061109, Seoul National University)
system: mouse macrophages from bone marrow, LPS + nigericin (NLRP3)
compound dose: 5 µM
value: % inhibition of cell death (propidium iodide), 0 = stimulated, 100 = untreated, floor at 0
*: called active, above 70% Part of the library is listed.

Brc1cccc(-c2cc(-c3ccc4c(c3)OCO4)[nH]n2)c1
- inhibition: 0.0%

CC(C)c1nc(N(C)S(C)(=O)=O)nc(-c2ccc(F)cc2)c1/C=C/[C@@H](O)C[C@@H](O)CC(=O)O
- inhibition: 0.0%

Cc1c(N2C(=O)c3ccc(C(=O)O)cc3C2=O)c(=O)n(-c2ccccc2)n1C
- inhibition: 0.0%

CNC(=O)c1ccc2c(c1)ncn2-c1ccc(CC(=O)OC(C)(C)C)cc1
- inhibition: 0.0%

COC(=O)[C@H](Cc1ccc([N+](=O)[O-])cc1)NC(=O)c1cccc2ccccc12
- inhibition: 0.0%

Cc1cc(C)nc(N2CC3CN(C(=O)c4c(F)cccc4-n4nccn4)CC3C2)n1
- inhibition: 0.0%

CCN(CC)C(=O)C(c1ccccc1)N1CCN(c2ccc(NC(=O)c3ccccc3-c3cccnc3)cc2F)CC1
- inhibition: 52.5%

O=c1oc2cc(O)ccc2c2ccc(O)cc12
- inhibition: 0.0%

CCCCCCCc1cc(=O)c2ccccc2n1O
- inhibition: 66.7%

O=C(O)[C@H]1O[C@@H](Oc2cc(O)c3c(=O)cc(-c4ccc(O)cc4)oc3c2)[C@H](O)[C@@H](O)[C@@H]1O
- inhibition: 38.3%

CC(=O)Nc1c(F)cc(C(=O)NC2CCC(O)CC2)cc1O[C@@H](C)c1ccccc1
- inhibition: 0.0%

COc1cc(-c2coc3cc4c(c(OC)c3c2=O)OCO4)cc(OC)c1OC
- inhibition: 56.2%

Oc1ccc(-c2c(-c3ccccc3)nn3c(C(F)(F)F)cc(C(F)(F)F)nc23)cc1
- inhibition: 77.3*%

NCCc1c[nH]c2ccc(O)cc12
- inhibition: 0.0%

O=c1[nH]c(=O)c2cn[nH]c2[nH]1
- inhibition: 60.0%

CCOC(=O)/C=C/c1ccc(O)cc1
- inhibition: 0.0%

COc1ccc2nc([S@@](=O)Cc3ncc(C)c(OC)c3C)[n-]c2c1.[Na+]
- inhibition: 0.0%

CCOC(=O)CCNC(=S)NCCCC[C@H](NC(=O)OCc1ccccc1)C(=O)N[C@@H](Cc1c[nH]c2ccccc12)C(=O)NC(C)C
- inhibition: 76.8*%

CCN(c1ccccc1)c1cc(=NC)n(C)c(C)n1.Cl
- inhibition: 0.0%

COc1cccc2c1c(O)c(C(=O)N(C)c1ccc(C(F)(F)F)cc1)c(=O)n2C
- inhibition: 63.8%

O=c1c(O[C@@H]2O[C@H](CO[C@@H]3O[C@H](CO)[C@@H](O)[C@H](O)[C@H]3O)[C@@H](O)[C@H](O)[C@H]2O)c(-c2ccc(O)cc2)oc2cc(O)cc(O)c12
- inhibition: 0.0%

CC(C)S(=O)(=O)Nc1ccc(F)c(C(=O)c2c[nH]c3ncc(-c4cccnc4)cc23)c1F
- inhibition: 82.1*%

O=C1Nc2ccccc2C1=O
- inhibition: 72.3*%

C/C1=C\CC[C@@]2(C)O[C@@H]2[C@H]2OC(=O)[C@H](CN(C)C)[C@@H]2CC1
- inhibition: 53.9%

CSc1ccc(C(=O)c2[nH]c(=O)[nH]c2C)cc1
- inhibition: 62.0%

COc1cc(/C=C/c2ccccc2)oc(=O)c1
- inhibition: 52.9%

CNC(=O)[C@@H](NC(=O)[C@H](CC(C)C)[C@H](O)C(=O)NO)C(C)(C)C
- inhibition: 9.2%

CC(C)Cc1ccc([C@@H](C)C(=O)O)cc1
- inhibition: 15.2%

Cc1cc(=O)n(C)c2cc(N3C(=O)CC[C@H](NS(=O)(=O)CC(C)C)[C@H]3c3ccc(Cl)cc3)ccc12
- inhibition: 82.4*%

O=c1c(O)cccc2cc(O)c(O)c(O)c12
- inhibition: 39.4%

CN(C)CCCSC(=N)N.Cl.Cl
- inhibition: 0.0%

O=C1c2ccccc2C(=O)C1c1ccc(Cl)cc1
- inhibition: 14.8%

Cl.O=S(=O)(NCCN1CCNCC1)c1ccc(NC2CCCCC2)c(NCc2ccccc2)c1
- inhibition: 0.0%

CC1(C(=O)N[C@@H](CCCCCCCc2ccc3c(n2)NCCC3)C(=O)O)CCOCC1
- inhibition: 0.0%

CC(C)=CCC[C@@](C)(O)[C@H]1CC[C@]2(C)[C@@H]1[C@H](O)C[C@@H]1[C@@]3(C)CC[C@H](O)C(C)(C)[C@@H]3[C@@H](O)C[C@]12C
- inhibition: 46.4%

COc1ccc(Cn2cc(C(=O)N=Nc3c(O)[nH]c4c(C)cccc34)nn2)cc1
- inhibition: 16.3%

c1ccc2c(CCNc3ccc(Nc4ccncc4)cc3)c[nH]c2c1
- inhibition: 0.0%

O=C(/C=C/n1cnc(-c2cc(C(F)(F)F)cc(C(F)(F)F)c2)n1)NNc1cnccn1
- inhibition: 0.0%

CCOC(=O)c1ccc(NC2CCCCC2)c(N)c1
- inhibition: 0.0%

Cc1c([C@H](C)[C@@H]2NC[C@@H](C)C[C@H]2O)ccc2c1C[C@H]1[C@H]2CC=C2C[C@@H](O)CC[C@@]21C
- inhibition: 0.0%

NNc1nc2ccccc2s1
- inhibition: 0.0%

CC(C)N=C(N)c1ccc2nc(-c3ccc(OCc4cccc(COc5ccc(-c6nc7ccc(C(N)=NC(C)C)cc7[nH]6)cc5)c4F)cc3)[nH]c2c1
- inhibition: 0.0%

CCS(=O)(=O)c1cccc(-c2cc(C(=O)NC3CCN(C)CC3)c(C)c3[nH]c4ncc(C)cc4c23)c1
- inhibition: 59.0%

Clc1ccc(C(Cn2ccnc2)OCc2ccsc2Cl)c(Cl)c1
- inhibition: 0.0%

COc1cc([C@@H]2Oc3c(O)cc([C@H]4Oc5cc(O)cc(O)c5C(=O)[C@@H]4O)cc3[C@H]2CO)ccc1O
- inhibition: 42.3%

Cc1c(C)c2c(c(C)c1O)CCC(C)(C(=O)O)O2
- inhibition: 0.0%

COc1cc(C)c2c(=O)cc(C[C@@H](C)O)oc2c1[C@@H]1O[C@H](CO)[C@@H](O)[C@H](O)[C@H]1OC(=O)/C=C/c1ccc(O)cc1
- inhibition: 0.0%

CC(C(O)c1ccc(O)cc1)N1CCC(Cc2ccccc2)CC1
- inhibition: 29.9%

CCCNC[C@]1(O)[C@H](C)O[C@@H](O[C@H]2[C@H](C)[C@@H](O[C@@H]3O[C@H](C)C[C@H](N(C)C)[C@H]3O)[C@](C)(O)C[C@@H](C)CN[C@H](C)[C@@H](O)[C@](C)(O)[C@@H](CC)OC(=O)[C@@H]2C)C[C@@]1(C)OC
- inhibition: 70.8*%

C=CC(=O)N1C[C@H](C)N(c2nc(=O)n(-c3c(C4CC4)ncnc3C3CC3)c3nc(-c4c(N)cccc4F)c(F)cc23)C[C@H]1C
- inhibition: 0.0%

CCc1c(C#N)c(S[C@@H](C(N)=O)c2ccccc2)nc(N(C)C)c1C#N
- inhibition: 0.0%

Cl.NCc1ccc2c(c1)nc(CN1C(=O)C3(CC3)c3ccc(F)cc31)n2CCCC(F)(F)F
- inhibition: 26.8%

CN(C)CCC=C1c2ccccc2CCc2ccccc21.Cl
- inhibition: 0.8%

COc1cc2c(cc1OC)[C@@H](Cc1ccc(Oc3cc(C[C@@H]4c5cc(OC)c(OC)cc5CCN4C)ccc3O)cc1)N(C)CC2
- inhibition: 66.3%

CCCCCC/C=C\CCCCCCCCCc1cccc(O)c1C(=O)O
- inhibition: 23.7%

CC(=O)Nc1ccc(N2C(=O)C(=Cc3ccc(Cl)cc3)C=C2c2ccccc2)cc1
- inhibition: 49.9%

CO[C@H]1C[C@@H]2CC[C@@H](C)[C@@](O)(O2)C(=O)C(=O)N2CCCC[C@H]2C(=O)O[C@H]([C@H](C)C[C@@H]2CC[C@@H](OP(C)(C)=O)[C@H](OC)C2)CC(=O)[C@H](C)/C=C(\C)[C@@H](O)[C@@H](OC)C(=O)[C@H](C)C[C@H](C)/C=C/C=C/C=C/1C
- inhibition: 72.1*%

CC1=CC(=O)CC(C)(C)[C@@]1(O)/C=C/C(C)=C\C(=O)O
- inhibition: 67.2%

Cc1cc2ncnn2cc1Nc1ncc2c(n1)n(C1CCOCC1)c(=O)n2C
- inhibition: 0.0%

Cc1cc(=O)c2c(O)cc(OCC3CS3)cc2o1
- inhibition: 0.0%

c1cc2c(cc1O[C@H]1OC[C@H]3[C@@H]1CO[C@@H]3c1ccc3c(c1)OCO3)OCO2
- inhibition: 69.9%

COC(=O)[C@@H](N)CCCN=C(N)N[N+](=O)[O-].Cl
- inhibition: 0.0%

COC(=O)c1ccccc1S(=O)(=O)NC(=O)Nc1nc(C)cc(C)n1
- inhibition: 0.0%

COC(=O)c1cc(OC)c2c(c1-c1c(CO)cc(OC)c3c1OCO3)OCO2
- inhibition: 65.5%

COc1nc2ccc(Br)cc2cc1[C@@H](c1ccccc1)[C@@](O)(CCN(C)C)c1cccc2ccccc12
- inhibition: 0.0%

COc1ccc2c(c1O)-c1c(OC)c(OC)cc3c1[C@H](C2)N(C)CC3.Cl
- inhibition: 11.6%

Repeating the final 6 entries:

Structure (SMILES) | inhibition (%)
c1cc2c(cc1O[C@H]1OC[C@H]3[C@@H]1CO[C@@H]3c1ccc3c(c1)OCO3)OCO2 | 69.9
COC(=O)[C@@H](N)CCCN=C(N)N[N+](=O)[O-].Cl | 0.0
COC(=O)c1ccccc1S(=O)(=O)NC(=O)Nc1nc(C)cc(C)n1 | 0.0
COC(=O)c1cc(OC)c2c(c1-c1c(CO)cc(OC)c3c1OCO3)OCO2 | 65.5
COc1nc2ccc(Br)cc2cc1[C@@H](c1ccccc1)[C@@](O)(CCN(C)C)c1cccc2ccccc12 | 0.0
COc1ccc2c(c1O)-c1c(OC)c(OC)cc3c1[C@H](C2)N(C)CC3.Cl | 11.6